# From PubChem
# DT40 TDP1 no CPT: qHTS for Inhibitors of human tyrosyl-DNA phosphodiesterase 1 (TDP1): qHTS in cells in absence of CPT | DT40 Tdp1-/- hTDP1 cells, no CPT, ATP luminescence, 48 h | Potency, µM (series often up to 46.2 µM), inactives show at the top dose activity change, negative = growth inhibition, most hits filed as inhibitors | 15% of 420,000 active | AID 686978, 2013; also: potency is read from the fitted curve at half-maximal effect; % is scaled to controls: 0 for no effect and ±100 for the full control effect; nearly all actives have a fitted effect of over 55% in size
#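 Growth of hTDP1-complemented DT40 Tdp1-knockout cells is measured by ATP luminescence after at least 48 hr compound exposure at 37 °C, with DMSO substituting for the 20 nM CPT used in the parallel screen.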
# TDP1 block: inhibitors of human tyrosyl-DNA phosphodiesterase TDP1. Q9NUW8. recombinant TDP1, AlphaScreen DNA substrate cleavage. Potency, µM (highest dose often 130 µM), without a hit: top-dose activity change, negative = inhibition, hits mostly inhibitors. 0.28% of 350,000 active. AID 485290; also: potency is read from the fitted curve at half-maximal effect; % is scaled to controls: 0 for no effect and ±100 for the full control effect; nearly all actives have a fitted effect of over 40% in size
#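 Recombinant human Tdp1 (E. coli-expressed, 1 nM final) preincubated with compounds 15 min at room temperature, then 5'-biotin/3'-phosphotyrosine-FITC DNA substrate (15 nM final) added for 5 min. AlphaScreen beads (10 ug/ml final) added 10 min; cleavage lowers signal.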
# uPA surface inh: cell surface uPA generation inhibition; Potency, µM (titrated, usually from 38.3 µM), for inactives: at the top dose activity change, negative = inhibition, usual class: inhibitors; AID 540303; 0.31% of 330,000 active; cell surface uPA generation assay, qHTS; active = well fitted inhibition curve with a large enough effect; inconclusive = small, poorly fitted or top-dose-only effect; inactive = no such curve, though single readings can be large or run the other way; tested in mouse RAW 264.7 cells; also: potency is read from the fitted curve at half-maximal effect; % is scaled to controls: 0 for no effect and ±100 for the full control effect; nearly all actives have a fitted effect of over 55% in size
# DT40 TDP1 CPT: growth inhibition of DT40 Tdp1-/-;hTDP1 cells with camptothecin (screen for TDP1 inhibitors) | chicken DT40 Tdp1-/-;hTDP1 cells + 20 nM CPT, ATP luminescence, 48 h | AID 686979 | 12% of 420,000 active | Potency, µM (highest dose often 46.2 µM), without a hit: at the highest dose activity change, negative = growth inhibition, usual class: inhibitors; also: potency is read from the fitted curve at half-maximal effect; % is scaled to controls: 0 for no effect and ±100 for the full control effect; nearly all actives have a fitted effect of over 55% in size
#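 Cell growth measured by CellTiter-Glo luminescence after a minimum 48 h, 37 C compound exposure with 20 nM CPT in Tdp1-knockout DT40 cells stably expressing hTDP1, seeded 400/well; qHTS titration format.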
# miR-21 reporter: raises the signal of a miR-21 reporter; AID 2288; 340,000 tested, under 10 active; Potency, µM (doses to about 38.3 µM), inactives show at the top dose reporter change, positive = more light; HeLa miR-21 FLuc reporter, luciferase, 48 h; active = well fitted rising curve with a large enough effect; inconclusive = small, poorly fitted or top-dose-only effect; inactive = no such curve, though single readings can be large or run the other way;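 note: % of control where 0% means no effect; miR-21 action dims this reporter so a rising signal means less miR-21 action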
#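 Using DMEM plus 10% FBS, HeLa miR-21-FLuc cells are incubated with test compounds (final up to about 40uM) for 48 hours; firefly luciferase signal is then imaged following reagent-mediated lysis.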
# The depositor's hits bear a star; ? = inconclusive; · = no result. Shown are actives, neighbours in structure and some others; about 16% of the full set was active somewhere. Unless noted, calls follow the shape of the dose curve; as a rule, active = well fitted curve in the direction sought with a large enough effect; inconclusive = small, poorly fitted or top-dose-only effect, or another doubt; inactive = no such curve, though single readings can be large; an effect the other way counts as inactive or inconclusive.
SMILES,DT40 TDP1 no CPT,TDP1 block,uPA surface inh,DT40 TDP1 CPT,miR-21 reporter
O=C(Nc1ccc(N2CCN(C(=O)c3cccs3)CC2)cc1)c1ccc(F)cc1,23µM*,1%,5%,-25%,16%
Nc1ccc(N2CCN(C(=O)c3cccs3)CC2)cc1,15µM*,8%,-15%,?,-10%
O=C(Nc1ccc(N2CCN(C(=O)c3ccc(Cl)cc3)CC2)cc1)c1cccs1,8%,6%,-15%,-26%,-4%
CCOc1ccc(C(=O)Nc2ccc(N3CCN(C)CC3)cc2)cc1Br,29µM*,2%,-3%,?,-26%
CC(=O)Nc1ccc(N2CCN(C(=O)c3cccs3)CC2)cc1,6%,0%,2%,5%,-8%
COc1cc(OC)cc(C(=O)Nc2ccc(N3CCN(C(=O)c4cccs4)CC3)cc2)c1,5.2µM*,5%,-11%,5.8µM*,13%
CN(C)S(=O)(=O)c1ccc(C(=O)NCCSc2ccc(Br)cc2)cc1,?,-6%,-6%,?,-2%
O=C(CNS(=O)(=O)c1ccccc1)OCc1cccc([N+](=O)[O-])c1,-1%,2%,4%,-7%,-10%
COc1ccc(C(=O)Nc2ccc(N3CCN(C(=O)c4cccs4)CC3)cc2)cc1Br,18µM*,2%,?,21µM*,22%
COc1ccc(C(=O)Nc2ccc(N3CCCC3)cc2)cc1Br,?,-3%,-1%,?,-34%
CCN(C(=O)CN1C(=O)CN(C)C1=O)c1cccc2ccccc12,?,2%,-3%,12µM*,·
Cc1c(Cl)cnc(NC(=O)CSc2nnnn2C)c1Cl,8%,-8%,8%,6%,·
CCCCn1c(N)c(N(CC(C)C)C(=O)CN(C)S(=O)(=O)c2ccc(C)cc2)c(=O)[nH]c1=O,-26%,-2%,1%,?,·
NC(=S)NN=Cc1nccc2c(N)cccc12,1.2µM*,·,·,1.8µM*,·
CCN(C(C)=O)c1cnc(C=NNC(N)=S)c2ccccc12,4.6µM*,·,-10%,3.7µM*,·
CC(=O)c1ccc(OCC(=O)Nc2ccc3c(c2)OCO3)cc1,?,·,·,-10%,·
NC(=O)c1ccc(NC(=O)COC(=O)C23CC4CC(CC(C4)C2)C3)cc1,-14%,·,·,-2%,·
CCOC(=O)C(Cc1c(F)cccc1Cl)c1ccnc2nc(N)nn12 (centres undefined),5%,-8%,-18%,9%,-9%
CCC(C(=O)Nc1ccc(OC)c(Cl)c1)c1ccccc1 (centres undefined),-7%,4%,10%,4%,-4%
O=C(Nc1ccc(Cl)c(C(F)(F)F)c1)c1ccco1,?,-3%,1%,-21%,-18%
FC(F)Oc1ccc(NC(=S)NCc2ccccc2)cc1Cl,?,0%,·,16µM*,15%
Fc1cc(NC(=S)NCc2ccc(CNC(=S)Nc3ccc(Cl)c(F)c3)cc2)ccc1Cl,13µM*,·,?,?,7%
O=C(Nc1ccc(OC(F)F)c(Cl)c1)C(c1ccccc1)c1ccccc1,18µM*,5%,-15%,?,?
CCNC(=S)Nc1ccc(Cl)c(C(F)(F)F)c1,23µM*,-6%,-7%,-95%,27%
O=C(Nc1ccc(F)cc1F)c1c2c(nc3ccccc13)C(=O)N(C1CCCCC1)C2,?,6%,·,?,-2%

# The final 6 compounds of the part before lead into the next.
SMILES,DT40 TDP1 no CPT,TDP1 block,uPA surface inh,DT40 TDP1 CPT,miR-21 reporter
O=C(Nc1ccc(Cl)c(C(F)(F)F)c1)c1ccco1,?,-3%,1%,-21%,-18%
FC(F)Oc1ccc(NC(=S)NCc2ccccc2)cc1Cl,?,0%,·,16µM*,15%
Fc1cc(NC(=S)NCc2ccc(CNC(=S)Nc3ccc(Cl)c(F)c3)cc2)ccc1Cl,13µM*,·,?,?,7%
O=C(Nc1ccc(OC(F)F)c(Cl)c1)C(c1ccccc1)c1ccccc1,18µM*,5%,-15%,?,?
CCNC(=S)Nc1ccc(Cl)c(C(F)(F)F)c1,23µM*,-6%,-7%,-95%,27%
O=C(Nc1ccc(F)cc1F)c1c2c(nc3ccccc13)C(=O)N(C1CCCCC1)C2,?,6%,·,?,-2%
O=C(c1c2c(nc3ccccc13)C(=O)N(C1CCCCC1)C2)N1CCN(c2ccc(F)cc2)CC1,26µM*,3%,·,21µM*,-2%
COc1ccc(N2CCN(C(=O)c3c4c(nc5ccccc35)C(=O)N(C3CCCCC3)C4)CC2)cc1,16µM*,7%,·,15µM*,-2%
CNC[C@H]1Oc2ccc(NC(=O)Nc3ccc4c(c3)OCO4)cc2C(=O)N([C@H](C)CO)C[C@@H]1C,-4%,4%,12%,-2%,·
c1nc(NCC2CCCO2)c2cc(-c3ccc4c(c3)OCO4)ccc2n1 (centres undefined),·,0%,·,·,·
CCN(CC)CC(=O)Nc1ccccc1SCC(=O)Nc1ccsc1C(=O)OC,?,-2%,·,?,0%
C[C@@H]1CN([C@@H](C)CO)C(=O)CCCn2nncc2CO[C@H]1CN(C)C(=O)c1ccc2ccn(C)c2c1,-1%,·,·,9%,·
Oc1ccc(C=NNC(=S)Nc2cccnc2)nc1,21µM*,·,-10%,16µM*,·
C[C@H]1CCCCO[C@@H](CN(C)C(=O)NC2CCCCC2)[C@@H](C)CN([C@@H](C)CO)C(=O)c2cc(NC(=O)Cc3ccccc3)ccc2O1,18µM*,·,·,-9%,·
C[C@@H]1CN([C@@H](C)CO)C(=O)c2cc(NC(=O)c3ccncc3)ccc2O[C@@H](C)CCCCO[C@@H]1CN(C)C(=O)Cc1ccccc1,-6%,·,·,-2%,·
Cc1noc(C)c1S(=O)(=O)Nc1ccc2c(c1)C(=O)N([C@@H](C)CO)C[C@@H](C)[C@@H](CN(C)CC1CCCCC1)OCCCC[C@@H](C)O2,15µM*,·,·,23µM*,·
Cc1ccc(S(=O)(=O)N(C)C[C@H]2OCCCC[C@@H](C)Oc3ccc(N(C)C)cc3C(=O)N([C@H](C)CO)C[C@@H]2C)cc1,21µM*,·,·,?,·
C[C@@H]1CCCCO[C@@H](CN(C)S(=O)(=O)c2ccccc2)[C@@H](C)CN([C@H](C)CO)C(=O)c2cc(NS(=O)(=O)c3ccc(F)cc3)ccc2O1,21µM*,·,·,?,·
O=S(=O)(O)c1ccc(N=NNc2ccc(Br)cc2)cc1,-10%,·,-4%,11%,-13%
CC(C)NC(=O)Nc1ccc2c(c1)C(=O)N([C@@H](C)CO)C[C@H](C)[C@H](CN(C)S(=O)(=O)c1ccccc1)OCCCC[C@H](C)O2,12µM*,·,·,18µM*,·
COc1ccc(S(=O)(=O)N(C)C[C@H]2Oc3ccc(NC(=O)Cc4ccccc4)cc3C(=O)N([C@H](C)CO)C[C@@H]2C)cc1,?,1%,10%,?,·
C[C@@H]1CCCCO[C@H](CN(C)S(=O)(=O)c2ccccc2)[C@@H](C)CN([C@H](C)CO)C(=O)c2cc(NC(=O)Cc3ccccc3)ccc2O1,?,·,·,21µM*,·
O=C(NC(=S)Nc1ccc(Cl)cc1)c1ccccc1,3%,-6%,-1%,14%,-65%
CC(NC(=O)Nc1ccc(Cl)cc1)c1ccccc1 (centres undefined),26µM*,·,20%,?,11%
O=C(Nc1ccccc1Cl)C(Cl)C(=O)c1ccccc1 (centres undefined),13µM*,3%,-2%,15µM*,-1%
O=C(Nc1ccc(Cl)cc1)C(Cl)C(=O)c1ccccc1 (centres undefined),13µM*,-4%,-2%,9.2µM*,0%
O=C(Nc1ccccc1Cl)c1ccccc1,-1%,0%,7%,2%,-46%
